Columns and labels:
Test in all cases: Solution competition SPR
Details in all cases: in words
[1] = molecular target: Mcl-1 (Homo sapiens, UniProt Q07820, A193S/E173D/K208R/M199L/R201E/S202A/S206G/T196S/T205A); assay type: binding, human/mouse chimeric
[2] = molecular target: Bcl-xL (Homo sapiens, UniProt Q07817); assay type: binding
[3] = molecular target: Bcl-2 (Homo sapiens, UniProt P10415); assay type: binding

Protein sequences, listed by entry. Tags and fused reporters are not part of them. Residues count along the entry.
UniProt Q07820, 171-327 E173D/A193S/T196S/M199L/R201E/S202A/T205A/S206G/K208R limits assumed: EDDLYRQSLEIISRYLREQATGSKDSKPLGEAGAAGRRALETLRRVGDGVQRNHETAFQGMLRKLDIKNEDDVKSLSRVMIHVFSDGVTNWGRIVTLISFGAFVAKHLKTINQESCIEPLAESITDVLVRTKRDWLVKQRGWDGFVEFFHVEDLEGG
UniProt Q07817, 1-209 limits assumed: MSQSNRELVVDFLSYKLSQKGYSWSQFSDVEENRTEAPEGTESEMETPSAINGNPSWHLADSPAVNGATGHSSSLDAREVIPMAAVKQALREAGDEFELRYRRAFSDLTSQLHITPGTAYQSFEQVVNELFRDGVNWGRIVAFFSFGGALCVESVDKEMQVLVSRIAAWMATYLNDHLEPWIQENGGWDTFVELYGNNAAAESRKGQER
UniProt P10415, 1-217 limits assumed, species assumed: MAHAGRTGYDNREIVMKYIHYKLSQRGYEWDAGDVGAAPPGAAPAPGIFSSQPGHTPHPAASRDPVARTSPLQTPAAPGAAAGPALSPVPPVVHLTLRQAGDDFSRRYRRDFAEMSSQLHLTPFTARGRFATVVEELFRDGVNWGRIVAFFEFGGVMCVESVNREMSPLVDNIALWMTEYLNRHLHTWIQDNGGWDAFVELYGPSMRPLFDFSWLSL

CC[C@H](C)[C@H](NC(=O)C[C@H](CCC(=O)O)NC(=O)[C@H](CCCNC(=N)N)NC(=O)[C@H](C)NC(=O)C[C@H](Cc1c[nH]c2ccccc12)NC(=O)[C@H](CCC(N)=O)NC(=O)[C@H](CCC(=O)O)NC(=O)[C@H](CCC(=O)O)NC(C)=O)C(=O)NCC(=O)N[C@@H](C)C(=O)N[C@@H](CCC(N)=O)CC(=O)N[C@@H](CC(C)C)C(=O)N[C@@H](CCCNC(=N)N)C(=O)N[C@@H](CCCNC(=N)N)CC(=O)N[C@@H](CCSC)C(=O)N[C@@H](C)C(=O)N[C@@H](CC(=O)O)C(=O)N[C@@H](CC(=O)O)CC(=O)N[C@@H](CC(C)C)C(=O)N[C@@H](CC(N)=O)C(=O)N[C@@H](C)CC(=O)N[C@@H](CCC(N)=O)C(=O)N[C@@H](Cc1ccc(O)cc1)C(=O)N[C@@H](CCC(=O)O)C(=O)N[C@@H](CCCNC(=N)N)CC(=O)N[C@@H](CCCNC(=N)N)C(N)=O [α/β-peptide 2]
affinity for Mcl-1 relative to the authentic BH3 domain [1]: considerably lower affinity | binding to Bcl-xL relative to Puma BH3 α-peptide 1 [2]: matches | binding to Bcl-2 relative to Puma BH3 α-peptide 1 [3]: matches
